Melting point values, as collected for the OPERA models

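The numbers are reported measurements, compiled and curated for the OPERA QSAR suite. The files give a single number for a compound and property, which may rest on several reports. Method, purity and exact conditions of the single measurements are not given. The measured form (salt, isomer or mixture) is not always the one drawn. Some upstream entries may be estimates or bounds without being marked so.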

Melting points are in °C.
"via" names the databases from which the curators took the value.

structure (SMILES) | melting point (°C) | via
CC(NC(=O)c1ccccc1N)c1ccccc1 (centres undefined) | 128 | OCHEM
O=C(CCl)Nc1nc(-c2ccc(F)cc2)cs1 | 143 | OCHEM
N#CCC(=O)Nc1nccs1 | 229 | OCHEM
Nc1ccccc1C(=O)NC1CC1 | 136 | OCHEM
O=C(Nc1ccccn1)C1CCNCC1 | 114 | OCHEM
CC(C)CCCCCCCCCCOC(=O)CCCCC(=O)OCCCCCCCCCCC(C)C | -61 | eChemPortal
O=C(O)CN[C@@H]1CCS(=O)(=O)C1 | 242 | OCHEM
COc1ccc(F)c(F)c1C#N | 80.5 | OCHEM
S=c1ccc(Cl)n[nH]1 | 149 | OCHEM
CC1CCc2c(sc(N)c2C(N)=O)C1 (centres undefined) | 189 | OCHEM
CC1=NN(C2CCS(=O)(=O)C2)C(=O)C1 (centres undefined) | 186 | OCHEM
CCC1(CC)NC(=O)N(CC(=O)O)C1=O | 171 | OCHEM
Clc1cc(Cl)c(Oc2ccccc2)cc1Cl | 61 | QSARDB
O=C(O)c1cc(-c2ccccc2F)on1 | 183 | OCHEM
Cc1nn(-c2ccccc2)c(Cl)c1C(=O)O | 233 | OCHEM
Fc1nccc(Br)c1Br | 75.5 | OCHEM
Clc1cccc(Cl)c1Oc1ccccc1 | 39 | QSARDB
O=C(O)CSc1nnc(-c2ccccc2)o1 | 170 | OCHEM
Cc1ccc(S(=O)(=O)N(CCC(=O)O)c2ccccc2)cc1 | 146 | OCHEM
CCOc1cc(N=Nc2c(Br)cc([N+](=O)[O-])cc2[N+](=O)[O-])c(NC(C)=O)cc1N(CCOC(C)=O)CCOC(C)=O | 157 | OCHEM
NS(=O)(=O)c1cc2c(s1)S(=O)(=O)CCC2O (centres undefined) | 168 | OCHEM
Nc1ccc(-c2cc3ccccc3o2)cc1 | 282 | OCHEM
COCCn1c(N)cc(=O)[nH]c1=O | 91 | OCHEM
Nc1ccc(S(=O)(=O)NCc2ccco2)cc1 | 181 | OCHEM
Cc1ccccc1-n1cn[nH]c1=S | 145 | OCHEM
CC1=C(C#N)C(C)(C)CCC1 | 0.8 | eChemPortal
Cc1c(C(=O)O)oc2c(F)cccc12 | 237 | OCHEM
COc1cc(C)ccc1C(=O)CBr | 78 | OCHEM
COc1ccccc1CO | 19.5 | eChemPortal
O=Cc1cn(-c2ccccc2)nc1-c1cccnc1 | 111 | OCHEM
O=C1C=CC(=O)N1c1ccc(F)cc1 | 161 | OCHEM
O=C(O)/C=C\C(=O)OCCOCCOCCOC(=O)/C=C\C(=O)O | -32.5 | eChemPortal

From the experimental data distributed with OPERA 2.9.